{
  "sequences": {"note": "Protein sequences, listed by entry. Tags and fused reporters are not part of them.", "UniProt P31652, whole entry": "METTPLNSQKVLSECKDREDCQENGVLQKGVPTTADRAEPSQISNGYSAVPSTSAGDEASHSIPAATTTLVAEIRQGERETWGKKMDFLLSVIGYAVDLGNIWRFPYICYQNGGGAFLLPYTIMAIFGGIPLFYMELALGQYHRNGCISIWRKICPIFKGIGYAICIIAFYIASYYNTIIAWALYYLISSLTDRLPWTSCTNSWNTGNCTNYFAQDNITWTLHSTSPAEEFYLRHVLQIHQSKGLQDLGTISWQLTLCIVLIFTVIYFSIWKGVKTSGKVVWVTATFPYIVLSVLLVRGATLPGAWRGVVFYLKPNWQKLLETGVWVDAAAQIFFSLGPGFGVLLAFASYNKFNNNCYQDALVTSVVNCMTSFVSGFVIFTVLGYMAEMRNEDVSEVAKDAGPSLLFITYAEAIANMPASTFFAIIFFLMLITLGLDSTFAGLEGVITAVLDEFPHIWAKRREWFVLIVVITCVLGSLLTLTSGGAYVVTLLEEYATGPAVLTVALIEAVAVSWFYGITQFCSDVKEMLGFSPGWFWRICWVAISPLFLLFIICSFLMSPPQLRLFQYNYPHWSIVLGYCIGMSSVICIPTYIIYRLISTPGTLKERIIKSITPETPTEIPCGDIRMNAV"},
  "source": "ChEMBL document CHEMBL1135173",
  "about": "“Discovery of substituted 3,4-diphenyl-thiazoles as a novel class of monoamine transporter inhibitors through 3-D pharmacophore search using a new pharmacophore model derived from mazindol” (Bioorg Med Chem Lett, 2002)",
  "target": "Sodium-dependent serotonin transporter (Rattus norvegicus, UniProt P31652)",
  "test": "Compound was tested for the inhibition of serotonin [3H]SER reuptake into rat forebrain membranes",
  "type": "cell membranes, Membrane",
  "data": [
    {"smiles": "COC(=O)[C@@H]1C2CCC(C[C@@H]1C(=O)Oc1ccccc1)N2C", "note": "(stereo partly specified)", "values": [
      {"measurement": "Ki", "result": 155, "unit": "nM"}
    ]}
  ]
}
